{
  "sequences": {"note": "By UniProt entry, the sequences of proteins in these tests, tags left out.", "UniProt P14842, whole entry": "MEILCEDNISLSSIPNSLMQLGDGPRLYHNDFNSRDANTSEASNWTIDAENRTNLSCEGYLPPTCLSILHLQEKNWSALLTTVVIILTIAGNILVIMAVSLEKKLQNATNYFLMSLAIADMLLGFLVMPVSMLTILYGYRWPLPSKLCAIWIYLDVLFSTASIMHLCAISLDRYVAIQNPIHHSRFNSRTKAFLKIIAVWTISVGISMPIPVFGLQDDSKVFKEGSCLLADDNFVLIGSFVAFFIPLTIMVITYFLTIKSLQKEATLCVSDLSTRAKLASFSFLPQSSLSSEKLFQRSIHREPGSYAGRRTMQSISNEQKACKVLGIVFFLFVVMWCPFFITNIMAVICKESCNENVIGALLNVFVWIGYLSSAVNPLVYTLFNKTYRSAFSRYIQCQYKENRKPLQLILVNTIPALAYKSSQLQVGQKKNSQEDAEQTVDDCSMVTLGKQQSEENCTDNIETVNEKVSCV"},
  "source": "patent US7208512B2",
  "about": "“Benzodifuranimidazoline and benzofuranimidazoline derivatives and their use for the treatment of glaucoma” (Alcon, Inc., priority 2001, dated 2007)",
  "target": "5-HT2 receptor (Rattus norvegicus, UniProt P14842)",
  "test": "5-HT2 functional assay: phosphoinositide (PI) turnover in A7r5 rat vascular smooth muscle cells",
  "assay_type": "cell-based",
  "design": "A7r5 rat vascular smooth muscle cells; endogenous in cells; host or cells: A7r5 rat vascular smooth muscle cells",
  "details": "compared to 5-HT (set at 100%)",
  "experimental": "The relative agonist activity of serotonergic compounds at the 5-HT2 receptor can be determined in vitro using the ability of the compounds to stimulate the production of [^3H]inositol phosphates in [^3H]myo-inositol-labeled A7r5 rat vascular smooth muscle cells by their ability to activate the enzyme phospholipase C. These cells are grown in culture plates, maintained in a humidified atmosphere of 5% CO2 and 95% air and fed semi-weekly with Dulbecco's modified Eagle medium (DMEM) containing 4.5 g/l glucose and supplemented with 2 mM glutamine, 10 μg/ml gentamicin, and 10% fetal bovine serum. For the purpose of conducting the phosphoinositide (PI) turnover experiments, the A7r5 cells are cultured in 24-well plates as previously described (Griffin et al. 1998). Confluent cells are exposed for 24–30 hrs to 1.5 μCi [^3H]-myo-inositol (18.3 Ci/mmol) in 0.5 ml of serum-free medium. […] The eluate (4 ml) is collected, mixed with 15 ml scintillation fluid, and the total [^3H]-IPs determined by scintillation counting on a beta-counter. Concentration-response data are analyzed by the sigmoidal fit function of the Origin Scientific Graphics software (Microcal Software, Northampton, Mass.) to determine agonist potency (EC50 value) and efficacy (Emax). […]",
  "data": [
    {"smiles": "COc1cc(C[C@@H](C)N)c(OC)cc1I", "note": "[(R)-DOI, reference compound]", "values": [
      {"measurement": "Efficacy (Emax, %) (5-HT2 functional)", "result": 82, "unit": "%"}
    ]}
  ]
}
